The values that follow are results of earlier work, collected in patent US8236827B2, “Compounds” (Spear Therapeutics Limited, priority 2009, dated 2012).

The target of the series is T1, Human Cytochrome P450 1B1 (Homo sapiens, UniProt Q16678).
T1 sequence (Q16678 1-543): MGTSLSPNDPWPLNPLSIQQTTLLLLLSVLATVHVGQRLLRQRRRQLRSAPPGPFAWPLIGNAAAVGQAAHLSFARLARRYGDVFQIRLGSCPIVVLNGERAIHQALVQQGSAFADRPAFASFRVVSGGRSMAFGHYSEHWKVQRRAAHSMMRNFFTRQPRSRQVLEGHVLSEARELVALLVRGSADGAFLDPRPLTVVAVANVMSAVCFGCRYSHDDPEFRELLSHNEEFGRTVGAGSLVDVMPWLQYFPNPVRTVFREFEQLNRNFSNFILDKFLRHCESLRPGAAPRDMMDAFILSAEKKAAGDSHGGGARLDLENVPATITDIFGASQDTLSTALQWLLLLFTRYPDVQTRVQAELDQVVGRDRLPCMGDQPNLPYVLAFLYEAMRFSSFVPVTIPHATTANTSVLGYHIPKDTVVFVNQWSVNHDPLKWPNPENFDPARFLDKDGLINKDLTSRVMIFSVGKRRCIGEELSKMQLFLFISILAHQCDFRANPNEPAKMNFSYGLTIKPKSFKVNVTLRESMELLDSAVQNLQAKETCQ
To be noted: cited from earlier work.

With Tetramethoxystilbene, the “fold selective for CYP1B1 over CYP1A1” value was 30 fold.
